{"source": "paper PMC9362525", "about": "(Diabetologia, 2022)", "key": {"patients with T2D": {"system": "patients with T2D", "assay_type": "in vivo, human"}, "patients with T2DM": {"system": "patients with T2DM", "assay_type": "in vivo, human"}}, "note": "Like-named read-outs stand apart in the source and are kept apart here.", "data": [{"substance": "NPH-insulin", "values": [{"measurement": "∆LVEF Rest, treatment vs washout", "setting": "patients with T2D; cardiac MRI", "value": "1±1", "unit": "%"}, {"measurement": "∆LVPFR Rest, treatment vs washout", "setting": "patients with T2D; cardiac MRI", "value": "8 ± 25", "unit": "mL/s"}, {"measurement": "∆LVEF Stress, treatment vs washout", "setting": "patients with T2D; chronotropic stress", "value": "-1±1", "unit": "%"}, {"measurement": "∆LVPFR Stress, treatment vs washout", "setting": "patients with T2D; chronotropic stress", "value": "-16 ± 28", "unit": "mL/s"}, {"measurement": "3-OH butyrate", "setting": "patients with T2D; fasting, end of 5 weeks", "value": "0.23 ± 0.02", "unit": "mM"}, {"measurement": "FFAs", "setting": "patients with T2D; fasting, end of 5 weeks", "value": "0.50 ± 0.05", "unit": "mM"}, {"measurement": "serum insulin", "setting": "patients with T2D; fasting, end of 5 weeks", "value": "141 ± 16", "unit": "pM"}, {"measurement": "incidence of severe hypoglycaemia", "setting": "patients with T2DM; all", "value": 1.8, "unit": "% per year"}, {"measurement": "incidence of severe hypoglycaemia", "setting": "patients with T2DM; female", "value": 1.7, "unit": "%/year"}, {"measurement": "incidence of severe hypoglycaemia", "setting": "patients with T2DM; male", "value": 1.9, "unit": "%/year"}]}]}
